Laboratory results: US8278296B2, “Manipulation of brain CDP-diacylglycerol and uses thereof” (priority 2006, dated 2012)
“Also recorded” adds a separate entry of the source.

Tested on: 5HT2 receptor
Details: hippocampus, similar in frontal cortex
Description: Hippocampal slices were incubated with either [^3H]inositol (FIGS. 13A-13B) or [^3H]cytidine (FIG. 13C) for 30 min, followed by addition of indicated concentrations of LY53857 (6-methyl-1-(1-methylethyl)-ergoline-8β-carboxylic acid 2-hydroxy-1-methylpropyl ester maleate). […] After 60 min, tritiated inositol phosphate, inositol phospholipids, or CDP-diacylglycerol were assayed. Each bar is the mean±SEM (n=6). Data for each analyte were normalized across experiments and test drugs and then were analyzed for each drug by One-Way ANOVA of responses measured at the four concentration conditions of LY53857 (0, 0.1, 1, 10 μM). The ANOVAs were followed with Dunnett tests comparing the response in the presence of each concentration of LY53857 to the control effect of the antidepressant alone.
To examine the extent to which the enhancing effects of antidepressant agents on inositol phosphate accumulation were dependent on postsynaptic 5HT2 receptor stimulation, each antidepressant was challenged with a range of concentrations of the 5HT2 receptor-selective antagonist, LY53857 (71-72). The antagonist was added after the prelabeling phase, but 15 min prior to the addition of α-methylserotonin to the incubating slices.

CNCCC(Oc1ccc(C(F)(F)F)cc1)c1ccccc1 (stereo not shown) [fluoxetine]
inhibition by 5HT2 receptor blockade (LY53857) of the drug's PI labeling / phosphatidylinositol resynthesis effect: substantial; also recorded: significantly inhibited
